These are literature values, as cited in publication PMC4230996 (Journal of Medicinal Chemistry, 2014).

This series relates to human mGlu4. Particulars: read-out: IC50 (binding affinity to mGlu4); human mGlu4, Merck's patent; cited from earlier work.

Take `O=C(Nc1ccc(N2C(=O)c3cccc(F)c3C2=O)c(Cl)c1)c1ccccn1` [Compound 3, N-(3-Chloro-4-(4-fluoro-1,3-dioxoisoindolin-2-yl)phenyl)-2-picolinamide]: the IC50 is 36 nM.

By IC50 is commonly meant the concentration at which inhibition is half-maximal.
